Assay results taken from PMC12281477, “Live-Cell NanoBRET Assay to Measure AKT Inhibitor Binding to Conformational States of AKT” (ACS Chemical Biology, 2025).

Legend:
[1] = system: T308 and S473 phosphorylation of AKT1-NL; settings: dose-response 100-0.00001 μM, 1 μM K5 tracer, ± 1 μM BX-795
[2] = system: T308 phosphorylation of Myr-AKT1-NL; settings: dose-response 100-0.00001 μM, 1 μM K5 tracer, presence and absence of BX-795

Cc1n[nH]c2ccc(-c3cncc(OCC(N)Cc4c[nH]c5ccccc45)c3)cc12 (centres unmarked) [A-443654]
Phosphorylation of AKT1-NL (Western blot) [1]: dose-dependent increase in T308 and S473 phosphorylation
Phosphorylation of Myr-AKT1-NL (Western blot) [2]: dose-dependent increase in T308 phosphorylation
